Results published in US20230322930A1, “USE OF AN ANTI-PD-1 ANTIBODY AND A CYTOTOXIC ANTICANCER DRUG IN TREATMENT OF NON-SMALL CELL LUNG CANCER” (SHANGHAI JUNSHI BIOSCIENCES CO., LTD., priority 2020, published 2023).

Test system: advanced or recurrent NSCLC with EGFR-sensitive mutations after failure of EGFR-TKI treatment
Assay: Phase II clinical trial, antitumor activity study (RECIST v1.1 / irRECIST)
Settings: with pemetrexed + carboplatin

In the case of “toripalimab: anti-PD-1 humanized IgG4 mAb with light and heavy chains of SEQ ID NOs: 9 and 10; described in WO 2014206107”, the “patients with a reduction in tumor size compared to baseline” value (36 patients) is reported as 90.0%, the DCR (RECIST v1.1, n = 40, 95% CI: 73.2-95.8) is reported as 87.5% and the “ORR at week 12” value (n = 40) is reported as 30.0%.
